The test concerns the target Insulin (Sigma-Aldrich, 19278) (Homo sapiens (Human)) (UniProt P01308). Nature of the test: non-specific ELISA, insulin coated, antibody 100 nM.

Sequences of proteins named here, by UniProt entry; tags and fusion partners are left off. Residues count along the entry.
UniProt P01308, 25-54 limits assumed, chain 1 of 2: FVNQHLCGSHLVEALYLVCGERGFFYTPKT
UniProt P01308, 90-110 limits assumed, chain 2 of 2: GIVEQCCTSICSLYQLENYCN

B1: v29452 (H1L3) (antibody, human IgG1, kappa, V domains shown)
VH: QVQLVQSGAEVKKPGASVKVSCKASGFTFTSYNVHWVRQAPGQGLEWMGAISPGNGDLSYAQKFQGRVTMTRDTSTSTVYMELSSLRSEDTAVYYCARGRTGMGAVDYWGQGTLVTVSS
VL: DVQMTQSPSSLSASVGDRVTITCRASQDVYSYLNWYQQKPGKAVKLLIYYTSRLQSGVPSRFSGSGSGTDYTLTISSLQPEDIATYYCQQYNIFPWTFGQGTKLEIKR
Turning to B1, the NS-ELISA binding score (signal over buffer well) is 1.03.

Values taken from patent publication US20260232827A1, “ANTIBODY-DRUG CONJUGATES TARGETING NAPI2B AND METHODS OF USE” (Zymeworks BC Inc., priority 2023, published 2026).
